Results published in publication PMC6746776, “TA*p63 and GTAp63 achieve tighter transcriptional regulation in quality control by converting an inhibitory element into an additional transactivation domain” (Cell Death & Disease, 2019).

Columns and labels:
[1] = system: TA*p63α S582/S583A; assay: BN-PAGE oligomeric state of TA*p63α S582/S583A upon Dox treatment; type: cell-based; details: transfected U2OS and H1299 cells, 10 µM Dox, 6 h
Description: (§1) Vinculin was used as loading control.

[2] = system: GTAp63α S582/S583A; assay: BN-PAGE oligomeric state of GTAp63α S582/S583A upon Dox treatment; type: cell-based; details: transfected U2OS and H1299 cells, 10 µM Dox, 6 h
Description: as §1

`COc1cccc2c1C(=O)c1c(O)c3c(c(O)c1C2=O)C[C@@](O)(C(=O)CO)C[C@@H]3O[C@H]1C[C@H](N)[C@H](O)[C@H](C)O1` [Dox, doxorubicin] was tested, and the “activation to tetrameric state, Chk2 priming site mutant S582/S583A of TA*p63α” value [1] was “S582/583A mutations prevent this activation” and the “activation to tetrameric state, Chk2 priming site mutant S582/S583A of GTAp63α” value [2] was “S582/583A mutations prevent this activation”.
